The entries are a selection whose mix differs from that of the whole data set. Results filed as inconclusive are left out. Active and inactive are the calls of the source. Calls follow the shape of the dose curve; as a rule, active = well fitted inhibition curve with a large enough effect; inconclusive = small, poorly fitted or top-dose-only effect; inactive = no such curve, though single readings can be large or run the other way.
Potency is read from the fitted curve at half-maximal effect.

In the assay the target is 3-hydroxyacyl-CoA dehydrogenase type-2 (Homo sapiens) (UniProt Q99714). Kind of assay: qHTS Assay for Inhibitors of HSD17B4, hydroxysteroid (17-beta) dehydrogenase 4.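 Also: the protocol describes HADH2 (HSD17B10) and not the HSD17B4 of the title; nearly all actives have a fitted effect of over 70% in size.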 The conditions noted are these: recombinant HSD17B10, NADH fluorescence kinetic.
With `O=P(Nc1nccs1)(c1ccccc1)c1nc2ccccc2s1` (stereo unspecified), the Potency was active: 0.794 µM.

The record behind these values is PubChem BioAssay AID893 (National Center for Advancing Translational Sciences (NCATS), 2007).
